According to US9371358B2 (priority 2010, dated 2016):

The compounds below were run on Human prostate cancer cell line (PC-3) (assay: MTT cell proliferation assay, cytotoxicity and GI50, PC-3). Settings: human cancer cell lines (PC-3 and HT-29, Table 1); statement in words.

| SMILES | cytotoxic activity compared with tubulysin A |
| --- | --- |
| CCCCNC(=O)C(C)N(C(=O)[C@@H](NC(=O)[C@H]1CCCCN1C)[C@@H](C)CC)[C@H](C[C@@H](OC(C)=O)c1nc(C(=O)N[C@@H](Cc2ccccc2)C[C@H](C)C(=O)O)cs1)C(C)C (stereo partly drawn) [tubugi D] | almost identical to that of tubulysin A |
| CCCCNC(=O)CN(C(=O)[C@@H](NC(=O)[C@H]1CCCCN1C)[C@@H](C)CC)[C@H](C[C@@H](OC(C)=O)c1nc(C(=O)N[C@@H](Cc2ccccc2)C[C@H](C)C(=O)O)cs1)C(C)C [tubugi A] | almost identical to that of tubulysin A |
| CC[C@H](C)[C@H](NC(=O)[C@H]1CCCCN1C)C(=O)N(CC(=O)NC(C)C)[C@H](C[C@@H](OC(C)=O)c1nc(C(=O)N[C@@H](Cc2ccccc2)C[C@H](C)C(=O)O)cs1)C(C)C [tubugi B] | almost identical to that of tubulysin A |
